## Ab-95 light chain CDR variants: yeast mating affinities

The target is the same throughout: PDVDLGDISGINAS, from the HR2 region of SARS-CoV-2 spike.

Parent: Ab-95, a human scFv built as VH, three GGGGS repeats, VL. Only the CDRs of the light chain vary.
VH: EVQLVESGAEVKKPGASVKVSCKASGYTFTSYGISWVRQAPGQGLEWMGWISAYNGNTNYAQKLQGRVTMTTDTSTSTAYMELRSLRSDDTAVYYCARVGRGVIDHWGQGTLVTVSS
VL: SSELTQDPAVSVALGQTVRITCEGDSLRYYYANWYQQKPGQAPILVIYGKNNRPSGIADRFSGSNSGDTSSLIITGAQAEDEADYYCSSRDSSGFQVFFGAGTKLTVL

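The parent was found by panning a naive human phage display library on the peptide. AAYL52 was designed without a model: most single CDR substitutions and a random sample of double and triple ones. The assay is AlphaSeq: two haploid yeast populations carry antibody and antigen on their surface. Binding brings cells together so that they mate, and sequencing counts the barcode pairs among the diploids. Each replicate has its own calibration line, from reference interactions of the BCL2 family. The assay was run in three technical replicates.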

The parent's light chain CDRs are EGDSLRYYYAN, GKNNRPS, SSRDSSGFQVF; each variant's own CDRs replace them letter for letter.
Affinities are written as log10 Kd with Kd in nM; a lower number is a better binder.
A mean of the replicates is given; it leaves out those without a signal.
Where no diploid with the target was found in that replicate, the entry reads "n.d.": below detection, most likely a poor binder, though not proof of it.
Background: pairings of library AAYL52 with three empty control strains gave a value in 28% of cases (median 3.91, 5th percentile 2.90). Values in that range, when seen in few replicates, are hard to tell from nonspecific mating.

CDR-L1 | CDR-L2 | CDR-L3 | replicates, log10 nM | mean, log10 nM
EGDSLRYYYAN | GKNNRPS | SHRDSSHFKVF | 3.40 3.17 2.86 | 3.14
EGDSGRYFYAN | GLNNRPS | SSRDSSGFQVF | 4.16 5.06 n.d. | 4.61
EGDSLRYYYAN | YKNNRVS | SSRGSSGFQVF | 4.76 4.09 3.42 | 4.09
EGDYLRYYYAN | GKHNRPS | SSRDSSAFQVF | 4.50 n.d. n.d. | 4.50
EGDSLRYYYAN | GKNNRPS | ASRDASPFQVF | 1.66 2.21 0.86 | 1.58
EGDSLRYYYAN | GKNKRPS | SSLDSSGFMVF | 3.89 n.d. 3.44 | 3.66
EQDTLRYYYAN | GKNNRPS | SSRSSSGFQVF | n.d. n.d. n.d. | n.d.
EGDSLNYYYAN | GVNNRPS | SSRDSQGFQVF | 3.49 2.97 2.25 | 2.90
EGDSLRYYYAN | GKNNRNS | SSRMSSGFQVF | 3.08 2.30 3.65 | 3.01
EGWSLRYYYAN | GKNNRPS | SSRRSSAFQVF | n.d. 5.38 2.83 | 4.11
EGDSLRYYYAN | GKNNRPS | SSKDSLAFQVF | 2.82 3.19 2.79 | 2.93
EGDDLRYYYKN | GKNNRPS | SSRDSEGFQVF | 4.24 n.d. n.d. | 4.24
EGSSLRYYYAW | GKNNRPS | SSRDSSGFQVF | 1.02 0.87 0.49 | 0.79
EGDSLRYYYAN | IKNNHPS | SSRDSSGKQVF | 4.42 n.d. n.d. | 4.42
EGDSLRYKPAN | GKNNRPS | SSRDSPGFQVF | 2.54 2.29 1.96 | 2.26
EGRSLRYYYAN | GKNNRYS | SSRDSSGSQVF | 2.55 2.44 2.62 | 2.54
NGDSLRYYYAN | GKNNRPR | SSRDSSGFQVR | n.d. 5.12 n.d. | 5.12
EGDSLRYYYAN | QLNNRPS | SSRASSGFQVF | 3.29 n.d. n.d. | 3.29
EGDSLRYYYAN | GKNNRPS | SSYDRSWFQVF | n.d. 2.65 3.30 | 2.97
EGDSLRYYYAN | GKNNRPN | SSRDSSWRQVF | n.d. 4.79 3.35 | 4.07
EGFSLRYYCAN | GKNNRPS | SSRYSSGFQVF | 4.02 2.75 3.93 | 3.57
EGDSLRYKYAN | GKTNRPS | SSRDSSGFQKF | 4.57 5.83 n.d. | 5.20
EGDSLNYYYAN | AKWNRPS | SSRDSSGFQVF | 2.94 4.29 3.42 | 3.55
EGDTIRYYYAK | GKNNRPS | SSRDSSGFQVF | 2.75 2.32 2.08 | 2.38
EGDSLDYYYAN | GKNNRPS | SSADSSGFQVY | n.d. n.d. n.d. | n.d.

The remaining entries, values ahead:

replicates, log10 nM | mean, log10 nM | CDR-L1 | CDR-L2 | CDR-L3
4.46 n.d. n.d. | 4.46 | EGDELRYYYAN | GKNNRPR | SSRDSSCFQVF
5.03 n.d. n.d. | 5.03 | EGFSLRYYYAN | GKNNFPS | SSRSSSGFQVF
5.29 4.19 n.d. | 4.74 | EGDSLRYYYAN | GKNNCPS | SSWDSSRFQVF
2.78 2.90 2.22 | 2.63 | EGDSLRYYYCN | GKNNRPS | SSRDSSSFQTF
2.62 2.46 2.11 | 2.40 | EGDSLRYYYAN | GENNRPS | FSRDSSGFMVF
n.d. 4.15 n.d. | 4.15 | EGPSLRYYMAN | FKNNRPS | SSRDSSGFQVF
3.82 3.20 3.09 | 3.37 | WGDSLRLYYAN | GKNNRPS | SSRDSSGMQVF
4.85 6.03 n.d. | 5.44 | EGDSLWYYYAN | GKNNRPS | PSRDSFGFQVF
4.34 n.d. 3.08 | 3.71 | EGDSLRYYYAN | GKNERDS | SSRDSFGFQVF
2.64 2.69 2.40 | 2.58 | EGDSLRYYYTN | GWNNRPS | SSRDSSGFKVF
n.d. 3.94 4.03 | 3.99 | EVDSLRYYYAN | GKNRRPS | SSRDSSGFGVF
n.d. 5.88 n.d. | 5.88 | EHDSLRYYYAN | GKNNAPS | SSRDSSGFQFF
3.53 5.68 n.d. | 4.60 | EGDSLRYEYAN | GKNNRPS | SSRKSSGSQVF
n.d. n.d. n.d. | n.d. | EGDSLRIYYAN | GKNNRPS | SSEDLSGFQVF
3.41 3.55 2.82 | 3.26 | EGDSLRYYYAN | GKSNRPS | SSRPSSGFQVF
n.d. n.d. 3.55 | 3.55 | EGWSLRYYCAN | GKNNRPS | SSRDSSGFQIF
4.08 2.61 3.06 | 3.25 | WGDSLRYYYAN | GKNNRPS | SSRDSFGAQVF
n.d. n.d. n.d. | n.d. | EGDSLRYGYAN | WKNNRPS | SSRDSSGFQFF
3.18 2.55 2.90 | 2.88 | VGDDLRYYYAN | GKNNRPS | SSYDSSGFQVF
3.32 n.d. n.d. | 3.32 | EGDSLRYYYAN | GKNTRPS | CSDDSSGFQVF
4.16 5.47 n.d. | 4.81 | IGDSLRYYYAN | DKYNRPS | SSRDSSGFQVF
5.29 n.d. n.d. | 5.29 | EVDPLRYYYAN | GYNNRPS | SSRDSSGFQVF
4.96 4.64 n.d. | 4.80 | EGDSIRYYYAN | GKNNRPS | ISRDSEGFQVF
4.72 5.73 n.d. | 5.23 | EIDSLRKYYAN | GKNNRPS | SSRDSSTFQVF
n.d. n.d. n.d. | n.d. | EGDSLRYYKAN | VKNNRPR | SSRDSSGFQVF

The measurements come from Engelhart et al. 2022 (doi:10.1038/s41597-022-01779-4) through the FLAb antibody collection.